System: SJSA-1 xenograft tumors
Assay: In vivo efficacy, SJSA-1 xenograft model (tumor volume)
Settings: oral once per day 2-3 weeks

Row | SMILES | in vivo efficacy (in words)
1 | CC(C)(C)C[C@H]1N[C@@H](C(=O)N[C@H]2C[C@@](C)(O)C2)[C@H](c2cccc(Cl)c2F)[C@@]12C(=O)Nc1cc(Cl)ccc12 [MI-519-64] | good in vivo efficacy
2 | CC(C)(C)C[C@H]1N[C@@H](C(=O)N[C@H]2C[C@@H](O)C2)[C@H](c2cccc(Cl)c2F)[C@@]12C(=O)Nc1cc(Cl)ccc12 (stereo in doubt) [MI-519-63] | good in vivo efficacy

— patent US9079913B2, “Spiro-oxindole MDM2 antagonists” (The Regents of the University of Michigan, priority 2009, dated 2015)
